According to patent US5840485A, “Topologically segregated, encoded solid phase libraries” (priority 1994, dated 1998):

Tested on: anti-β-endorphin monoclonal antibody (clone 3-E 7)
Test: Screening of encoded peptide library XXXX-Lys(XXXX)-Lys(ZZ) on beads
Format: binding
Settings: Table 3, two cycles of Edman degradation
Description: The peptide library was screened according to published procedures (Lam and Lebl, 1992, Immunomethods 1: 11-15). The peptide beads were first mixed with double-distilled water to remove the DMF. After extensive washing with PBS (137 mM NaCl, 2.7 mM KCl, 4.3 mM Na2 HPO4, 1.4 mM KH2 PO4, pH 7.2), the beads were coated with 0.05% gelatin (w/v) to block any nonspecific binding. The beads were then incubated with a 1:100,000 dilution of streptavidin-alkaline phosphatase at 2 mg/ml (Pierce; Rockford, Ill.) in 2× PBS/Tween/gelatin (2× PBS, 0.1% Tween-20 (v/v), and 0.05% gelatin (w/v)). The beads were then thoroughly washed with TBS (137 mM NaCl, 2.7 mM KCl, 25 mM Tris base, pH 7.4) and the standard substrate 5-bromo-4-chloro-3-indolyl phosphate was added. The beads, together with the substrate, were then transferred to petri dishes for color development. After 30 minutes to 1 hour, the colored beads were collected, with the aid of a micropipette, washed with 6M guanidine hydrochloride, pH 1.0, and subjected to sequencing as described.
The remaining library of colorless beads were then recycled with 8M guanidine hydrochloride, pH 2.0, thoroughly washed with PBS, and incubated with 60 pM biotinylated anti-β-endorphin (clone 3-E 7, Boehringer Mannheim) in 2× PBS/Tween/gelatin overnight. After thorough washing, streptavidin-alkaline phosphatase was added. […]

YGGL: test peptide sequence deduced from positive beads of the encoded library
Target of positive bead, deduced sequence: anti-β-endorphin
